System: naïve CD4^+T cells from B7.1/2^−/− IL-2^+/+ or B7.1/2^−/− IL-2^−/− mice
Experiment: RA-mediated effects on T cell differentiation without IL-2 (anti-IL-2 or IL-2−/− T cells) or with exogenous IL-2
Assay type: cell-based, mouse
Description: C57BL/6 CD45.1 (Ly5.1) and CD45.2 (Ly5.2), OT-I TCR-transgenic (C57BL/6 background), RAG1^−/− (C57BL/6 background), B7.1/2 double-knockout (C57BL/6 background) and IL-2^−/− (C57BL/6 background) mice were purchased from The Jackson Laboratories (USA). To obtain B7.1/2-IL-2 tripleknockout mice, B7.1/2^−/− and IL-2^−/− mice were crossed in our animal facility. OT-II CD90.1 TCR transgenic mice (C57BL/6 background). Mice were maintained under specific pathogen-free conditions and sentinel mice from the RAG1^−/−mice colony were tested to be negative for Helicobacter spp. and Citrobacter rodentium. Mice were used at 7-12 weeks of age. Animal care and experimentation were consistent with the NIH guidelines and were approved by the Institutional Animal Care and Use Committee at the La Jolla Institute for Allergy and Immunology.
The culture medium used for dendritic cell-T cell cultures was Iscove's modified Dulbecco medium (IMDM) (Gibco, USA) supplemented with 10% heat-inactivated FCS, 2 mM L-glutamine, 100 U/ml penicillin, 100 μg/ml streptomycin, and 5 mM β-mercaptoethanol (all Sigma, USA). […] For the study shown in FIG. 4A, after sorting of naive CD4^+ cells (CD25^−CD44^lowCD62L^+), cells were washed twice in PBS+0.1% BSA, counted and labeled with 2 μM of CFSE (Carboxyfluorescein diacetate, succinimidyl ester) (Molecular Probes, USA) at a concentration of 5−10×10^6 cells per ml in PBS-0.1% BSA. […]

IL-2: exogenous cytokine IL-2 (200 u/ml)
CD103 phenotype of the Foxp3^+Tregs generated (TGF-β-dependent Foxp3 differentiation): CD103^−
IL-17 cytokine secretion (ELISA) (culture supernatants): did not

From patent publication US20090136470A1, “REGULATORY T CELLS AND METHODS OF MAKING AND USING SAME” (priority 2007, published 2009)
